Measured values from patent publication US5441883A, “A3 adenosine receptor, DNA, and uses” (priority 1993, dated 1995).

Sequences of proteins named here, by UniProt entry; tags and fusion partners are left off.
UniProt P28647, whole entry: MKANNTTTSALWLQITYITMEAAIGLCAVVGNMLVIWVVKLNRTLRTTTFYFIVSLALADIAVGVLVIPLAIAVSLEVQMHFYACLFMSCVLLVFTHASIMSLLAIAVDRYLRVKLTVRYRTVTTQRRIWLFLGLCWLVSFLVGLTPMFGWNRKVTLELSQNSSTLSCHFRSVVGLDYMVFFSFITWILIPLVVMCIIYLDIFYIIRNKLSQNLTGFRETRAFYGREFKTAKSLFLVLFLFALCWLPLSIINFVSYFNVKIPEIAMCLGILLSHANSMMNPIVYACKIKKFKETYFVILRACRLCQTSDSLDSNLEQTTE

How the values were obtained:
A3 adenosine receptor [1] = molecular target: T1, A3 adenosine receptor (Rattus norvegicus, UniProt P28647); details: transiently transfected COS-7 cell membranes
Protocol: The entire coding region of the A3 cDNA insert from R226 was excised from pGem226 and subcloned into either the HindIII/XbaI sites of an RC-RSV expression vector (Invitrogene, San Diego, Calif.) or the HindIII/SmaI sites of pBC12BI (Cullen, 1987, Meth. Enzym. 152: 684-704). The resulting plasmids were called Rc-RSV226 and pBC226 respectively. For transient expression in COS-7 cells, pBC226 plasmid DNA was prepared in large-scale through one cycle of CsCl gradient ultracentrifugation and 45 μg pBC226 DNA were transfected into each 150mm dish of COS-7 cells according to the method of Chen and Okayama (1987, Molec. Cell Biol. 7: 2745-2752). […]
Cell membranes were prepared as follows. […] The protein concentration was measured according to the method of Lowry et al. (1954, J. Biol. Chem. 207: 1-XXX) using bovine serum albumin as a standard.
Radioligand binding assays were carried out in duplicate in 500 μl of a solution containing (at final concentrations) 50 mM Tris-HCl (pH 7.4), 5 mM MgCl2, 1 mM EDTA, 0.025 % ascorbic acid, radioligands, and appropriate drugs. […] Nonspecific binding was determined in the presence of 10 μM R-N^6 -phenyl-2-propyladenosine (R-PIA). […]

A3 adenosine receptor [2] = molecular target: T1, A3 adenosine receptor; format: binding; details: rank order
Protocol: FIGS. 4A and 4B illustrates competitive binding assays using stably transfected CHO cell membrane preparations.
Cell membranes were prepared as follows. COS-7 cells (transient expressors) were harvested 48 hrs after transfection, whereas CHO cells (stable expressors) were grown to confluence in 150 mm plates. Cells were washed twice with ice-cold HOB buffer [15 mM Tris-HCl (pH 7.4), 5 mM MgCl2, 1 mM EDTA] and scraped off plates with a rubber policeman. Cells were then collected by centrifugation at 1,200 rpm (xx g), resuspended in HOB buffer, transferred to a Dounce homogenizer on ice, and homogenized for 20 sec with a CorTarge homogenizer (Eberbach Inc., Ann Arbor, Mich.) at the #3 speed setting. The homogenate was then centrifuged at 2,000 rpm (xx g) for 10 min at 4° C. […] The protein concentration was measured according to the method of Lowry et al. (1954, J. Biol. Chem. 207: 1-XXX) using bovine serum albumin as a standard.
Radioligand binding assays were carried out in duplicate in 500 μl of a solution containing (at final concentrations) 50 mM Tris-HCl (pH 7.4), 5 mM MgCl2, 1 mM EDTA, 0.025 % ascorbic acid, radioligands, and appropriate drugs. […] Nonspecific binding was determined in the presence of 10 μM R-N^6 -phenyl-2-propyladenosine (R-PIA). […] Radioactivity retained on the filters were counted using a Beckman LS6800 scintillation counter (Beckman Instruments, Palo Alto, Calif.). […]

A3 adenosine receptor [3] = molecular target: T1, A3 adenosine receptor; format: cell-based
Protocol: The concentrations of adenosine agonists used are 100 nM and the concentration of forskolin is 1 μM. Values are obtained from triplicate plates and shown as mean ±S.E.
The cell were not or pretreated with 100 ng/ml pertussis toxin for 18 hours. The concentration of forskolin and adenosine agonists used are as in FIG. 5.
It is known that the A 1 adenosine receptor inhibits adenylate cyclase activity and the A2 adenosine receptor stimulates adenylate cyclase respectively (Stiles, ibid.; Williams, ibid.).
Cells were grown to about 80% confluence in 150 mm dishes, washed twice with Ca^++ and Mg^++ -free PBS buffer and detached from plates with PBS buffer containing 0.02% EDTA. Cells were collected by centrifugation at 800 rpm (xx g) for 10 min at 4° C. and resuspended in an appropriate volume of KRH buffer [140 mM NaCl, 5 mM KCl , 2 mM CaCl2, 1.2 mM MgSO4, 1.2 mM KH2 PO4, 6 mM glucose, 25 mM Hepes-NaOH (pH 7.4)]. The cells were washed once with KRH buffer and resuspended in KRH buffer at a concentration of 10^7 cells/ml. Each of 100 μl aliquots of this cell suspension were added to a glass tube containing 100 μl KRH+200 μM Ro 20-1724 and incubated at 37° C. for 10 min. Prewarmed 200 μl KRH containing 200 μm Ro 20-1724 and test drugs were then added to the cells and mixed. After incubation at 37° C. for 20 min, 400 μl 10.5 mM NaAc (pH 6.2) were added and the glass tubes transferred to a boiling water bath. The incubated cell suspension were boiled for 20 min, and the tubes were then cooled to room temperature and centrifuged at 3000 rpm (xx g) for 15 min.
For experiments using pertussis toxin pretreatment, aseptic pertussis toxin (Sigma Chemical Co., St. Louis, Mo.) was dissolved in sterile water and added to the medium to a final concentration of 100 ng/ml. Toxin treatment was maintained for approximately 18 hours. The dishes were rinsed once with media immediately prior to the addition of adenosine receptor ligands and processed as described above.

**Q.** With `CCNC(=O)[C@H]1O[C@@H](n2cnc3c(N)ncnc32)[C@H](O)[C@@H]1O` [NECA, N-ethyladenosine-5'-uronic acid] as the compound, how does the radioligand binding (A3 adenosine receptor [1]) read?
**A.** The radioligand binding was “saturable and high affinity radioligand binding”.

**Q.** What about the “pharmacological profile of inhibition of [125I]APNEA binding” value (A3 adenosine receptor [2]) of the same compound?
**A.** The value was “R-PIA=NECA>S-PIA>adenosine>ATP=ADP”.

**Q.** What about the “inhibitory effect of R-PIA and NECA on forskolin-stimulated cAMP production after pertussis toxin pretreatment” value (A3 adenosine receptor [3]) of the same compound?
**A.** The value was “almost completely abolished”.

**Q.** What about the “inhibition of forskolin-stimulated cAMP accumulation” value (A3 adenosine receptor [3]; 1 μM forskolin, 100 nM agonist) of the same compound?
**A.** Its value is 20-50%.

**Q.** And the “maximum inhibition of cAMP production” value (A3 adenosine receptor [3]; of control values)?
**A.** Its value is 40-50%.
